For nine compounds, inhibition results are on record in PubChem BioAssay AID1006 (Sanford-Burnham Center for Chemical Genomics, 2008).

Chains of the proteins cited; added tags and fusions are not shown.
UniProt P08659, whole entry, looked up: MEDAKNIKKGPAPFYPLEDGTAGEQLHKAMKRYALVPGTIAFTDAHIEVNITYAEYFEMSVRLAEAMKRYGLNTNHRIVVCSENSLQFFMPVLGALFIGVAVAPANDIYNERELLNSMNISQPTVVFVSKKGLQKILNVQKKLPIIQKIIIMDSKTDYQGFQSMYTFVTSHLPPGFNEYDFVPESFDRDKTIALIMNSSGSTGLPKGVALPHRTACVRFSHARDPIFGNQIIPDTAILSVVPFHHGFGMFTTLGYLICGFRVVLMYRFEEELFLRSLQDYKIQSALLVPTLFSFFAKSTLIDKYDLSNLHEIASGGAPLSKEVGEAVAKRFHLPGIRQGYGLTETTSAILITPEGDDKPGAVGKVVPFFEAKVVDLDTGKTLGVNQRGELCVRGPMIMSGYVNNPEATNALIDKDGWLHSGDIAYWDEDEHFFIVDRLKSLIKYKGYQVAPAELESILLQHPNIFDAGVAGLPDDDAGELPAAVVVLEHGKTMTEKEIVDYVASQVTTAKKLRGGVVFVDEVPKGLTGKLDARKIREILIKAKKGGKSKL

Only a part is listed here, and it is no random draw. Some results for these compounds are left out of this collection, so the calls shown say nothing about other tests. Activity calls are given as the source filed them.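 The calls were made as follows: active = inhibition above about 50% when tested at 10 µM (limit read from the data); inactive = the rest.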

The target in this assay is Luciferin 4-monooxygenase (Photinus pyralis) (UniProt P08659). Put plainly: firefly luciferase enzyme inhibitors, primary screen, artefact control for luciferase-based inhibitor screens, biochemical, luminescence, ATPLite (AID 1006). The following applies: 10 min, at 10 µM, active compounds read high.
As a reminder, the inhibition is the change of the read-out against control, counted positive when it falls. For `CN(C)c1cccc(C(=O)NCC2(N(C)C)CCCCC2)c1`, the inhibition was inactive: -8.7%.
As for `O=C(OC1CN2CCC1CC2)C(CO)(c1ccccc1)c1ccccc1` (centres undefined), the figure is inactive: -5.9%; as for `COc1cccc(C(=O)NCC2(N3CCCCC3)CCCCC2)c1`, inactive: -3.4%; as for `CCN1CCCC(OC(=O)C2(O)c3ccccc3C=Cc3ccccc32)C1` (centres undefined), inactive: -12%.
To `C=CCN1CCN(CCOC(=O)C(O)(c2ccccc2)c2ccccc2)CC1` belongs inactive: -9.1%.
As for `CN(C)C1CCCC1OC(=O)C(O)(c1ccccc1)c1ccccc1` (centres undefined), the figure is inactive: -2.5%.
For the compound `Cc1ccccc1C(=O)NCC1(N2CCCCC2)CCCCC1`, the inhibition is inactive: -11%.
As for `CC(C)N1C(=O)CC2(CCN(CCOC(=O)C(O)(c3ccccc3)c3ccccc3)CC2)C1=O`, the figure is inactive: 0.5%.
Regarding `O=C(NCC1(N2CCCCC2)CCCCC1)c1cc([N+](=O)[O-])ccc1Cl`, the inhibition was inactive: -2.6%.
